Chains of the proteins cited; added tags and fusions are not shown. Lines headed by an entry give the natural chain unless they say otherwise; changes in a name come on top.
UniProt P19174: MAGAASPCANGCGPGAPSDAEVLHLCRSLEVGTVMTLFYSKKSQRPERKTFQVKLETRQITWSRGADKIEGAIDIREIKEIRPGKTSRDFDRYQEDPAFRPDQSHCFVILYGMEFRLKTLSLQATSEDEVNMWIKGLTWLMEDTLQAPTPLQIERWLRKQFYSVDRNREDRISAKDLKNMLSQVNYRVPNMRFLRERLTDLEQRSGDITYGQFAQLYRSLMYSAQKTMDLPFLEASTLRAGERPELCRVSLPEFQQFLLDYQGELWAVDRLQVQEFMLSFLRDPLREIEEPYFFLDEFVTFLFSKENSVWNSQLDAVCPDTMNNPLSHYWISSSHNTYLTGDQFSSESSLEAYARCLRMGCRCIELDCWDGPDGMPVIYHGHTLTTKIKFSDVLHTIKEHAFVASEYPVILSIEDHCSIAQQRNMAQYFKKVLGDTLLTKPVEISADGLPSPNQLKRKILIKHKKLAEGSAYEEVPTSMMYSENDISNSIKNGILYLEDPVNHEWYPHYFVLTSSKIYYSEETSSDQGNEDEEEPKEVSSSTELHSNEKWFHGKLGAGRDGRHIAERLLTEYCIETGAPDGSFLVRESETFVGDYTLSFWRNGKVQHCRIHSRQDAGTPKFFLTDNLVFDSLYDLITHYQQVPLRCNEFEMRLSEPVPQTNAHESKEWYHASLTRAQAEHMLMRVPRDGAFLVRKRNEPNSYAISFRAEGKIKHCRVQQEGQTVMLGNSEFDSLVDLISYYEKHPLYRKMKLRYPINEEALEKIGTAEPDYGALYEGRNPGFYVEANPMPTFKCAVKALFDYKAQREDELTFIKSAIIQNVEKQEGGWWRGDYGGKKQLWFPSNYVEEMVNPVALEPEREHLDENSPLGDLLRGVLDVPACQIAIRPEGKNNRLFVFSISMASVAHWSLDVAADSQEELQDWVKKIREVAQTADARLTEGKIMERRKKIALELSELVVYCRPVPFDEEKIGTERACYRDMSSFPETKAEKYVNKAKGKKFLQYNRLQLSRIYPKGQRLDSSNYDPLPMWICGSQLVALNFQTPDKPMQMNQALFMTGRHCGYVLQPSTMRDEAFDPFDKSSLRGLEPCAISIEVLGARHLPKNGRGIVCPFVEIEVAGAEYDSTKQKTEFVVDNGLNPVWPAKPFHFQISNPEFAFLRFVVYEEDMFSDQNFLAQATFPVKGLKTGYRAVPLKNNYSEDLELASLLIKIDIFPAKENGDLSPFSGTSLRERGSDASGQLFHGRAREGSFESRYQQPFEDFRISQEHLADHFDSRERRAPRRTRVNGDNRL

This is a selection; strong and weak results do not stand in their true shares. The source made the active and inactive calls. Cut-off read from the data, not from the text of the source: active = inhibition above about 9.5%; inactive = the rest.
These compounds were tested against 1-phosphatidylinositol 4,5-bisphosphate phosphodiesterase gamma-1 (Homo sapiens) (UniProt P19174) (assay: blockers of human PLCG1 activity – biochemical, fluorescence, purified enzyme, primary screen (AID 720700)). Conditions: purified PLC-gamma1, fluorogenic substrate, at 12.2 µM, hits give high values.
For `C[C@H]1OP(=O)(Oc2ccccc2)[C@H](O)[C@H](O)[C@H]1N=[N+]=[N-]` (some centres undefined), the inhibition was inactive: 0.92%.
For `O=P(Nc1nc2ccccc2s1)(c1ccccc1)c1ccccc1`, the inhibition was inactive: -1.29%.
For `CN(C)C1(CNC(=O)c2ccc(Cl)c(S(N)(=O)=O)c2)CCCCC1`, the inhibition was inactive: 0.25%.
`O=P(Nc1ccccn1)(c1ccc(Br)cc1)c1ccc(Br)cc1` was tested, and the inhibition was inactive: -2.54%.
In the case of `Nc1ccc(CCCCOc2ccccc2)cc1`, the inhibition is reported as inactive: 0.64%.
In the case of `COc1ccc(N)c([N+](=O)[O-])c1[N+](=O)[O-]`, the inhibition is reported as inactive: 1.91%.
In the case of `O=C(OC1CN2CCC1CC2)c1cccc(Cl)c1` (centres undefined), the inhibition is reported as inactive: 2.22%.
For `Nc1ccc([As](=O)(O)c2ccc([N+](=O)[O-])cc2)cc1`, the inhibition was inactive: 0.59%.
With `C(Cc1nn[nH]n1)Cc1nn[nH]n1` the inhibition was inactive: -0.41%.
In the case of `C/C(N)=N\P(=O)(OCc1ccccc1)OCc1ccccc1`, the inhibition is reported as inactive: 2.42%.
With `O=[As](O)(c1ccccc1)c1ccc(O)cc1` the inhibition was inactive: 3.48%.
For `O=[N+]([O-])c1ncn(CCn2cnc([N+](=O)[O-])n2)n1`, the inhibition was inactive: 1.41%.
For `CC(=O)NC(SC(=S)N(C)C)C(Cl)(Cl)Cl` (centres undefined), the inhibition was inactive: 3.47%.
In the case of `c1nnnn1CCn1cnnn1`, the inhibition is reported as inactive: 1.6%.
With `O=P(Nc1nccs1)(c1ccccc1)c1ccccc1` the inhibition was inactive: 1.8%.
`CC(C)C(=O)NC(Sc1ccccc1)C(Cl)(Cl)Cl` (centres undefined) was tested, and the inhibition was inactive: 2.46%.
For `CC(C)(C)C(=O)NC(Sc1ccccc1)C(Cl)(Cl)Cl` (centres undefined), the inhibition was inactive: 4.35%.
`CCc1cc(O)c([N+](=O)[O-])c(C)c1[N+](=O)[O-]` was tested, and the inhibition was inactive: -2%.
In the case of `CCOc1ccc(C2=NCC(CBr)S2)cc1` (centres undefined), the inhibition is reported as inactive: 0.72%.
For `O=P1(Nc2nc3ccc(Cl)cc3s2)COc2ccccc2O1` (centres undefined), the inhibition was inactive: 1.79%.
For `CC(=O)Nc1ccc(Oc2c([N+](=O)[O-])cc([N+](=O)[O-])cc2[N+](=O)[O-])cc1`, the inhibition was inactive: 1.74%.
With `CC(=O)Nc1ccc([As](=O)(O)O)c(O)c1` the inhibition was inactive: 1.72%.
For `C[C@@H]1C=CCP(=O)(Oc2ccccc2)O1` (some centres undefined), the inhibition was inactive: 3.77%.
`C[C@H]1OP(=O)(Oc2ccccc2)C[C@@H]2O[C@@H]21` (some centres undefined) was tested, and the inhibition was inactive: 1.63%.
`Cc1ccccc1CN(C)C(=O)COC(=O)C(O)(c1ccccc1)c1ccccc1` was tested, and the inhibition was inactive: 1.77%.
For `COC(=O)C1(C)COP(=O)(NCc2ccccc2)OC1` (centres undefined), the inhibition was inactive: 0.58%.
`N#C/C(=C\c1ccc(N(CCBr)CCBr)cc1)C(N)=O` was tested, and the inhibition was inactive: -15.7%.
In the case of `CC(=O)c1ccc(N2CC2c2ccncc2)cc1` (centres undefined), the inhibition is reported as inactive: 0.14%.
`O=P1(N(CCCl)CCCl)OCCC2CCCCN21` (centres undefined) was tested, and the inhibition was inactive: 9.42%.

Source: PubChem BioAssay AID720700 (The Scripps Research Institute Molecular Screening Center, 2013)
